How the values were obtained:
Type in all cases: cell membranes
Adenosine receptor A1 = Adenosine receptor A1 (Rattus norvegicus, UniProt P25099); test: Tested for the displacement of specific [3H]PIA in rat brain membranes of A1 receptor
Adenosine receptor A3 = Adenosine receptor A3 (Rattus norvegicus, UniProt P28647); test: Displacement of specific [125]AB-MECA binding in membranes of CHO cells stably transfected with the rat A3-cDNA
In short: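 CHO cells stably expressing rat A3 receptor, grown in F-12 with 10% FBS at 37 °C, 5% CO2; membranes incubated with [125I]AB-MECA (0.3 nM final) in 50 mM Tris/10 mM MgCl2/1 mM EDTA pH 8.26, duplicate, 1 h at 37 °C, then filtered. Inhibitors diluted from DMSO (≤1% final). Nonspecific binding with 40 μM R-PIA.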

Protein sequences, listed by entry. Tags and fused reporters are not part of them.
UniProt P25099, whole entry: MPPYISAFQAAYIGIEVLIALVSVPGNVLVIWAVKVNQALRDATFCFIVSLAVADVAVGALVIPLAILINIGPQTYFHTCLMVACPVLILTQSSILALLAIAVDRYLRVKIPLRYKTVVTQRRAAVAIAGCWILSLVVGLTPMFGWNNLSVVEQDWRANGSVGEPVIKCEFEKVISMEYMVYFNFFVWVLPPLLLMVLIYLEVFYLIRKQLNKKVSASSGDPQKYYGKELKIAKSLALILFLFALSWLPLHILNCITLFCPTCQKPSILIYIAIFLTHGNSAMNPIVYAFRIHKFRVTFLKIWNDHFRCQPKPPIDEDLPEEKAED
UniProt P28647, whole entry: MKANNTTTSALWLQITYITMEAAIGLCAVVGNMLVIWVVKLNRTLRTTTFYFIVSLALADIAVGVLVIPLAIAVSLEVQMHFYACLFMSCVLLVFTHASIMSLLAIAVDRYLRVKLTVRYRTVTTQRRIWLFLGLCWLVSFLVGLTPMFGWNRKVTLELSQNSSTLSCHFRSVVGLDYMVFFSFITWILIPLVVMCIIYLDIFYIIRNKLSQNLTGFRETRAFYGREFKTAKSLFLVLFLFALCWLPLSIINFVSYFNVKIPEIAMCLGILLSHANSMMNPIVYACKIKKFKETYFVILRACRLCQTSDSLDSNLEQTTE
UniProt P30543, whole entry: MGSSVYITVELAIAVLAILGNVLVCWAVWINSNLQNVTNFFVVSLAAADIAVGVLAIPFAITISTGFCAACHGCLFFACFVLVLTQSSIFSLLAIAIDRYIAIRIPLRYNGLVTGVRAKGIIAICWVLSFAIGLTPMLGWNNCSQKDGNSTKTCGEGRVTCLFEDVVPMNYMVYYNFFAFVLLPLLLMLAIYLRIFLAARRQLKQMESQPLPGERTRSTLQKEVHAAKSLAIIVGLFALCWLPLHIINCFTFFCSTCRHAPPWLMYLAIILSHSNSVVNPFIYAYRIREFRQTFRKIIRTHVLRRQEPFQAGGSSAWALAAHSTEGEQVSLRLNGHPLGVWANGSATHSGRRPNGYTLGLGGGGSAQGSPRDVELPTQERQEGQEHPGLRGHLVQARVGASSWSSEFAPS

[1] = target: Adenosine receptor A2a (Rattus norvegicus) (UniProt P30543); test: Displacement of specific [3H]- CGS-21680 in rat striatal membranes A2a receptor at 10e-4 M concentration; conditions: Membrane
In short: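 Rat striatal membranes; [3H]CGS 21680 binding at A2a receptors. Adenosine deaminase (3 units/mL) present during membrane preparation, which includes a 30 °C, 30 min incubation, and during radioligand incubation.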

With `CCCCn1c(=O)c2c(ncn2C2O[C@H](C(=O)NC)[C@@H](O)[C@H]2O)n(CCCC)c1=O` (stereo partly drawn) the Ki (Adenosine receptor A1) was 37.3 µM, the Ki (Adenosine receptor A3) was 0.229 µM and the inhibition [1] was 19%.

Reference: ChEMBL document CHEMBL1127734, “Selective ligands for rat A3 adenosine receptors: structure-activity relationships of 1,3-dialkylxanthine 7-riboside derivatives” (J Med Chem, 1994)
